The values that follow come from PubChem BioAssay AID441 (NMMLSC, 2006).

Protein sequences, listed by entry. Tags and fused reporters are not part of them.
UniProt P25090, whole entry: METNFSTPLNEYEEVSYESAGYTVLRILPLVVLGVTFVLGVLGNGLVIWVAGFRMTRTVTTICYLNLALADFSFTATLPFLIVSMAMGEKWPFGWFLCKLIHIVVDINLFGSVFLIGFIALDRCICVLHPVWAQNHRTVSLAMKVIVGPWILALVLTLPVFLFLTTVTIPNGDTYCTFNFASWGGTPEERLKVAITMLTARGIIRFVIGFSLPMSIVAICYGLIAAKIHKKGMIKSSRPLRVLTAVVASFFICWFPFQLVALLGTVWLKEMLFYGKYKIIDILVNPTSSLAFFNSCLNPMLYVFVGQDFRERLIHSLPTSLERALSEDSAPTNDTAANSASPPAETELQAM

The list shows a part of the results, in another mix than the full data. Calls of active or inactive are those of the source. Rule as the data show it: active = inhibition above about 30%; inconclusive = no clear call, values can overlap the other calls; inactive = below that.

In the experiment the target is N-formyl peptide receptor 2 (Homo sapiens) (UniProt P25090). Kind of experiment: small molecules displacing FPRL1 fluorescent ligand – cell-based, FPR counter-screen, flow cytometry, primary screen (AID 441).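 Also: 0% = buffer alone and 100% = receptor blocker peptide.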 Particulars: FPRL1-expressing cells, fluorescent ligand binding inhibition, stronger effect = higher value, concentration not given here.
Turning to `N#CC1(Nc2ccccc2)CCN(CCc2ccccc2)CC1`, the inhibition is inactive: -1.5%.

As to `Fc1ccccc1NC1CCN(Cc2ccccc2)CC1`, the inhibition is inactive: -2%.
